# Target: EGFR (Homo sapiens, UniProt P00533, DEL746-750)
# Experiment: Global label-free quantitative proteomics in HCC-827 cells
# Assay type: cell-based
# Conditions: 100 nM for 16 h
compound,measurement,setting,value
"COc1cc2ncnc(Nc3ccc(F)c(Cl)c3)c2cc1OCCCN1CCN(C(=O)CCCCCCCCCC(=O)N[C@H](C(=O)N2C[C@H](O)C[C@H]2C(=O)NCc2ccc(-c3scnc3C)cc2)C(C)(C)C)CC1 [Compound 6, (2S,4R)-1-((S)-2-(11-(4-(3-((4-((3-Chloro-4-fluorophenyl)amino)-7-methoxyquinazolin-6-yl)oxy)propyl)piperazin-1-yl)-11-oxounde-canamido)-3,3-dimethylbutanoyl)-4-hydroxy-N-(4-(4-methylthiazol-5-yl)benzyl)pyrrolidine-2-carboxamide]","log 2 ratio of LFQ intensity value for EGFR, treatment vs DMSO control",HCC-827 cells starved 8 h,about –2
same,selectivity across the proteome,"HCC-827 cells, 4794 / 4446 proteins identified",highly selective for EGFR
